# Ab-14 light chain CDR variants: yeast mating affinities

Antigen: PDVDLGDISGINAS, a 14-residue peptide of the SARS-CoV-2 spike HR2 region.

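The library (AAYL50) carries one to three amino acid substitutions per variant, with no insertions or deletions. The assay is AlphaSeq: two haploid yeast populations carry antibody and antigen on their surface. Mating (16 h, 30 °C) was followed by selection of diploids and sequencing of their barcodes. The ratio of observed to expected reads was calibrated, replicate by replicate, on BCL2-family standards whose Kd was known from biolayer interferometry. Mating was done three times.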

Each scFv is VH, three GGGGS repeats, VL, as in the parent Ab-14, and differs from it in the CDRs of the light chain only.
VH: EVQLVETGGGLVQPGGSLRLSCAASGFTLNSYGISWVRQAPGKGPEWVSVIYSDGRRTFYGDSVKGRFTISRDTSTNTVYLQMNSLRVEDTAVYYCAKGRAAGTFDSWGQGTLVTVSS
VL: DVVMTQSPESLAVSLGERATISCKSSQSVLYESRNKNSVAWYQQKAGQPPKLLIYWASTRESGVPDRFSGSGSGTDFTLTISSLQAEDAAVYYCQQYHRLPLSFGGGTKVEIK

Each variant is given by its three light chain CDRs, as the data file delimits them; those of the parent are KSSQSVLYESRNKNSVA, WASTRES, QQYHRLPLS. Affinities are written as log10 Kd with Kd in nM; a lower number is a better binder. A mean of the replicates is given; it leaves out those without a signal. "nd" marks a missing value. The strain was present, yet no cells mated with the target were sequenced in that replicate, which points to weak or no binding. Nonspecific signal, from three strains lacking the peptide, appeared in 18% of pairings of library AAYL50, centred on 4.19 (5% of these signals below 2.99); values are not corrected for it. Also given: how often the same scFv was detected with the empty control strains, with their mean in brackets. For reference, the parent read 0.65 as the reference entry and 1.68 as a member of this library.

CDR-L1,CDR-L2,CDR-L3,log10 Kd (nM) by replicate,mean log10 Kd (nM),signal with controls
KSSQSVLYESRNKNSVA,WAKTRES,QNYHDLPLS,2.60 / 2.51 / 3.02,2.71,2/9 (4.86)
KSLQSVLYESRNKNSVA,WASTRES,QYYHREPLS,6.60 / nd / nd,6.60,3/9 (4.78)
KSSQSVLYESANKNSMA,WASTRES,QQRHRLPLS,1.20 / 1.10 / 0.99,1.10,3/9 (4.57)
KSSQSVLYEERNKNSVA,WASTRTD,QQYHRLPLS,nd / nd / 5.49,5.49,3/9 (4.22)
KSSQSVLYESQNKNSVA,WMSTRES,QRYHRLPLS,nd / nd / nd,nd,1/9 (3.29)
KSSQSVLYESRNKPSVA,WAETRES,QQYHRPPLS,nd / nd / nd,nd,0/9
KSSQSVLYESRNKMSVA,WASTKES,YQYHRLPLS,3.68 / 3.44 / 5.12,4.08,7/9 (4.05)
KGSQSVLYESRNKNSVM,WASTRES,QQYHRLCLS,nd / nd / nd,nd,1/9 (4.81)
KSSQSVLYESRNKKSVA,WASTRES,QQQHRLPQS,nd / nd / nd,nd,0/9
KSSYSVLYESRNKNSVA,WAWMRES,QQYHRLPLS,2.09 / 2.08 / 2.30,2.16,2/9 (4.55)
KSSQWVLYESRGKNSVA,WASTRES,QQYHRLPHS,nd / 5.66 / nd,5.66,1/9 (6.03)
KSSQSVFYESRNKNSYA,WASQRES,QQYHRLPLS,5.00 / 4.65 / 4.35,4.67,3/9 (4.78)
KSSQAVLYESRNKNSVA,EASTRES,QYYHRLPLS,-0.18 / 0.30 / 0.00,0.04,6/9 (5.41)
KSSQSYLYESRNKRSVA,WASTRES,QQYHRLPTS,nd / nd / nd,nd,0/9
KMSQSVLYESRNKNSVA,WASTRES,RQYTRLPLS,nd / nd / nd,nd,0/9
KLSQSVLYESRNKNSVA,WPSTRES,QQYHRLPLS,2.11 / 2.57 / 2.54,2.40,1/9 (3.09)
KSSQWVQYESRWKNSVA,WASTRES,QQYHRLPLS,1.51 / 1.67 / 1.42,1.53,0/9
KSSQSVLYESRNKNFVA,WASTRES,QQYHRMPLS,nd / nd / 3.05,3.05,0/9
KSSQSTLYESRNKNWVA,WESTRES,QQYHRLPLS,nd / nd / nd,nd,2/9 (4.51)
KSSQSWLYESRNKNSVA,WASTRES,QQYHRGNLS,1.79 / 1.54 / 2.33,1.89,0/9
KSSQSVLYESRNKNSVA,WASTREQ,QQYCRLILS,5.99 / nd / nd,5.99,3/9 (3.79)
KSSQSVLYESRNKNSVA,WLSHRES,QQYHRVPLS,nd / 4.43 / 4.29,4.36,4/9 (4.22)
KSSQSVLTEPRNKNGVA,WASTRES,QQYHRLPLS,1.62 / 1.42 / 1.34,1.46,3/9 (3.92)
KSSQSVEYESRNKNSVA,WASTRET,QQYHRLPLS,0.57 / 0.82 / 0.85,0.75,2/9 (4.37)
KSSQSVLYESRNKNSVA,WASTREG,QEKHRLPLS,0.74 / 1.22 / 1.15,1.04,0/9
KSSQSMLYESRNKNSVA,RASTRVS,QQYHRLPLS,0.12 / 0.38 / 0.19,0.23,2/9 (3.29)
KSSQSVLYEPRNKNSYA,WASHRES,QQYHRLPLS,nd / nd / nd,nd,1/9 (4.29)
KSSQSVLYESRNKNSVA,WASTRES,TRYHRLPLP,0.56 / 1.03 / 0.61,0.73,5/9 (4.08)
KSSLSVLYHSRNKCSVA,WASTRES,QQYHRLPLS,2.90 / 2.26 / 3.17,2.78,2/9 (3.85)
KSSQSVLYESRNKNSVA,WASTRNV,QQYHRLPLS,3.46 / 3.18 / 4.63,3.75,5/9 (4.59)
KSSQMVSYESRNKNSVA,YASTRES,QQYHRLPLS,1.11 / 0.55 / 0.03,0.57,0/9
KSSQSVLKESRNKNSVA,WAITRES,QQYHCLPLS,1.42 / 1.98 / 1.53,1.65,1/9 (5.23)
KSSQSVLNESRTKNSVA,WASTRES,QQYHRLPCS,1.28 / 1.24 / 1.42,1.31,2/9 (3.63)
KSSQSVSYEYRNKNSVA,WASTRES,QQYHRLPLS,0.75 / 1.02 / 0.91,0.89,4/9 (4.89)
FSSQSVLYESRNKNSHA,WASTRES,QDYHRLPLS,0.29 / 0.54 / 0.42,0.42,2/9 (3.67)
KSLQSVLYESRNKNSVA,WLSTRES,QQYHYLPLS,nd / nd / nd,nd,0/9
ISSQSHLYESRNKNSVA,WASTRES,QQYHRLELS,nd / nd / nd,nd,1/9 (2.92)
KLSQSVLSESRNKNSVA,KASTRES,QQYHRLPLS,4.06 / nd / nd,4.06,1/9 (4.64)
KSSQSVLYESRNKNSVP,WASTRMS,QQYHRLPLS,nd / nd / nd,nd,0/9
KSSQSVLYESRNKNSVG,WASTRES,QQYMRLPLG,nd / nd / nd,nd,0/9
KSSQSVLYESRNKNSNA,WASTRSP,QQYHRLPLS,nd / 2.96 / nd,2.96,0/9
KSSQSVLYESRNRNSVA,WASTRES,QQYHRYPLS,nd / nd / nd,nd,1/9 (2.71)
KSSQSVLYESRNKNSVA,MYSTRES,PQYHRLPLS,3.29 / nd / nd,3.29,0/9
KSSQSVLYISRNKNSVA,WASTRQS,QQNHRLPLS,nd / 3.50 / nd,3.50,0/9
KSSQTVLYESRNKNSVA,WASTRES,QGYHRLPLS,nd / 2.99 / 3.86,3.43,0/9
KYSQSVLYESRNKNSVN,WASTAES,QQYHRLPLS,nd / nd / nd,nd,3/9 (4.34)
KSSQSVLDESRNKNSVA,WWSTRES,QQYHRLALS,nd / nd / nd,nd,1/9 (3.23)
KSSQSVLAESRNKNSVA,WASTREC,QQYHRLPLS,0.80 / 0.93 / 1.07,0.93,1/9 (4.88)
KPSQSVFYESRNKNSVA,WASTRES,QQYHRDPLS,nd / nd / nd,nd,0/9
KSSQSVLYESRNKNSVA,WASVRES,KQYHRLPLS,4.03 / 3.04 / 3.39,3.49,0/9
SSSQSVLYESRNLNSVA,WASTRES,QQPHRLPLS,nd / nd / nd,nd,0/9

A selection of 8 entries from above:

CDR-L1,CDR-L2,CDR-L3,log10 Kd (nM) by replicate,mean log10 Kd (nM),signal with controls
KSSQSVLYESRNKNSVA,WLSHRES,QQYHRVPLS,nd / 4.43 / 4.29,4.36,4/9 (4.22)
KSSQMVSYESRNKNSVA,YASTRES,QQYHRLPLS,1.11 / 0.55 / 0.03,0.57,0/9
KSSQSVLYESANKNSMA,WASTRES,QQRHRLPLS,1.20 / 1.10 / 0.99,1.10,3/9 (4.57)
KSSQWVQYESRWKNSVA,WASTRES,QQYHRLPLS,1.51 / 1.67 / 1.42,1.53,0/9
KSSQSTLYESRNKNWVA,WESTRES,QQYHRLPLS,nd / nd / nd,nd,2/9 (4.51)
KSSQSVLAESRNKNSVA,WASTREC,QQYHRLPLS,0.80 / 0.93 / 1.07,0.93,1/9 (4.88)
KSSQSYLYESRNKRSVA,WASTRES,QQYHRLPTS,nd / nd / nd,nd,0/9
KSSQSVLYESQNKNSVA,WMSTRES,QRYHRLPLS,nd / nd / nd,nd,1/9 (3.29)

Source: Engelhart et al. 2022 (doi:10.1038/s41597-022-01779-4), MIT Lincoln Laboratory and A-Alpha Bio; data file from the FLAb repository.